“And” between values parts separate entries of the source, which are not always exact repeats. Identical values can stand only once.
Tested on: NZB/W F1 female mice with severe nephritis

`C[C@@H]1C[C@H]2[C@@H]3CCC4=CC(=O)C=C[C@]4(C)[C@@]3(F)[C@@H](O)C[C@]2(C)[C@@]1(O)C(=O)COP(=O)([O-])[O-].[Na+].[Na+]` [Dex, dexamethasone 21-phosphate disodium] was tested, and the “mice in which albuminuria was detected” value (8-week time point) was 82%, the survival (after 2-month treatment) was 80% and ~82% and the “mice in which albuminuria intensified” value (over the experimental time course) was 36%. The “mice euthanized due to severe nephritis” value (prior to the end of the experiment) was about 18%.

— patent publication US12011450B2, “Polyethylene glycol-conjugated glucocorticoid prodrugs and compositions and methods thereof” (Board of Regents of the University of Nebraska, priority 2015, dated 2024)
